Assay results: patent publication US7034027B2, “Fused heterocyclic derivatives as phosphodiesterase inhibitors” (Lilly Icos LLC, priority 2000, dated 2006)

Molecular target: human recombinant PDE5 (Homo sapiens, UniProt O76074)
Assay: Inhibitory effect on cGMP-PDE (PDE5 IC50, one-step assay)
Type: biochemical
Conditions: read-out: PDE5 IC50, in vitro
Procedure: The compounds of structural formula (I) were tested for an ability to inhibit PDE5. The ability of a compound to inhibit PDE5 activity is related to the IC50 value for the compound, i.e., the concentration of inhibitor required for 50% inhibition of enzyme activity. The IC50 value for compounds of structural formula (I) were determined using recombinant human PDE5.
cGMP-PDE activity of compounds of the present invention was measured using a one-step assay adapted from Wells et al., Biochim. Biophys. Acta, 384, 430 (1975). The reaction medium contained 50 mM Tris-HCl, pH 7.5, 5 mM magnesium acetate, 250 μg/ml 5′-Nucleotidase, 1 mM EGTA, and 0.15 μM 8-[H^3]-cGMP. Unless otherwise indicated, the enzyme used was a human recombinant PDE5 (ICOS Corp., Bothell, Wash.).
Compounds of the invention were dissolved in DMSO finally present at 2% in the assay.

Row | Compound | IC50 [nM]
1 | CN(C)c1ccc(CNC(=O)C[C@@H]2NC(=O)[C@H]3Cc4c([nH]c5ccccc45)[C@@H](c4ccc5c(c4)OCO5)N3C2=O)cc1 | 90
2 | CC(C)OC(=O)C[C@@H]1NC(=O)[C@H]2Cc3c([nH]c4ccccc34)[C@@H](c3ccc4c(c3)OCO4)N2C1=O | 7.8
3 | O=C1N[C@@H](COCc2ccccc2)C(=O)N2[C@H](c3ccc4c(c3)OCO4)c3[nH]c4ccccc4c3C[C@H]12 | 9.5
4 | CC(C)(C)OC(=O)C[C@@H]1NC(=O)[C@H]2Cc3c([nH]c4ccccc34)[C@@H](c3ccc4c(c3)OCO4)N2C1=O | 8.6
5 | O=C1N[C@@H](CCl)C(=O)N2[C@H](c3ccc4c(c3)OCO4)c3[nH]c4ccccc4c3C[C@H]12 | 10
6 | CCCCCCCOC(=O)C[C@@H]1NC(=O)[C@H]2Cc3c([nH]c4ccccc34)[C@@H](c3ccc4c(c3)OCO4)N2C1=O | 30
7 | CCOC(=O)CC[C@@H]1NC(=O)[C@H]2Cc3c([nH]c4ccccc34)[C@@H](c3ccc4c(c3)OCO4)N2C1=O | 8
8 | O=C(O)C[C@H]1NC(=O)[C@H]2Cc3c([nH]c4ccccc34)[C@@H](c3ccc4c(c3)OCO4)N2C1=O | 20
9 | NCC[C@@H]1NC(=O)[C@H]2Cc3c([nH]c4ccccc34)[C@@H](c3ccc4c(c3)OCO4)N2C1=O | 420
10 | O=C(C[C@@H]1NC(=O)[C@H]2Cc3c([nH]c4ccccc34)[C@@H](c3ccc4c(c3)OCO4)N2C1=O)OCC(F)(F)F | 9
11 | O=C(O)C[C@@H]1NC(=O)[C@H]2Cc3c([nH]c4ccccc34)[C@@H](c3ccc4c(c3)OCO4)N2C1=O | 9.2
12 | CCOC(=O)C[C@@H]1NC(=O)[C@H]2Cc3c([nH]c4ccccc34)[C@@H](c3ccc4c(c3)OCO4)N2C1=O | 8.6
13 | O=C1NC(Cn2cccn2)C(=O)N2[C@H](c3ccc4c(c3)OCO4)c3[nH]c4ccccc4c3C[C@H]12 (some centres unmarked) | 600
14 | O=C1N[C@@H](Cc2cccnc2)C(=O)N2[C@H](c3ccc4c(c3)OCO4)c3[nH]c4ccccc4c3C[C@H]12 | 90
15 | O=C(C[C@@H]1NC(=O)[C@H]2Cc3c([nH]c4ccccc34)[C@@H](c3ccc4c(c3)OCO4)N2C1=O)OC1CCCC1 | 7
16 | COC(=O)C[C@@H]1NC(=O)[C@H]2Cc3c([nH]c4ccccc34)[C@@H](c3ccc4c(c3)OCO4)N2C1=O | 10
17 | O=C(CC1NC(=O)[C@H]2Cc3c([nH]c4ccccc34)[C@@H](c3ccc4c(c3)OCO4)N2C1=O)NCCN1CCCC1 (some centres unmarked) | 50
18 | NCCCC[C@@H]1NC(=O)[C@H]2Cc3c([nH]c4ccccc34)[C@@H](c3ccc4c(c3)OCO4)N2C1=O | 0.03
19 | CN1CCN(C(=O)C[C@@H]2NC(=O)[C@H]3Cc4c([nH]c5ccccc45)[C@@H](c4ccc5c(c4)OCO5)N3C2=O)CC1 | 80
20 | NC[C@@H]1NC(=O)[C@H]2Cc3c([nH]c4ccccc34)[C@@H](c3ccc4c(c3)OCO4)N2C1=O | 80
